Assay results from patent publication US20140037574A1, “PHARMACEUTICAL COMPOSITION” (priority 2010, published 2014).
Read-outs that look alike come from different tables or passages of the source.

Protein sequences, listed by entry. Tags and fused reporters are not part of them.
UniProt P08684, whole entry: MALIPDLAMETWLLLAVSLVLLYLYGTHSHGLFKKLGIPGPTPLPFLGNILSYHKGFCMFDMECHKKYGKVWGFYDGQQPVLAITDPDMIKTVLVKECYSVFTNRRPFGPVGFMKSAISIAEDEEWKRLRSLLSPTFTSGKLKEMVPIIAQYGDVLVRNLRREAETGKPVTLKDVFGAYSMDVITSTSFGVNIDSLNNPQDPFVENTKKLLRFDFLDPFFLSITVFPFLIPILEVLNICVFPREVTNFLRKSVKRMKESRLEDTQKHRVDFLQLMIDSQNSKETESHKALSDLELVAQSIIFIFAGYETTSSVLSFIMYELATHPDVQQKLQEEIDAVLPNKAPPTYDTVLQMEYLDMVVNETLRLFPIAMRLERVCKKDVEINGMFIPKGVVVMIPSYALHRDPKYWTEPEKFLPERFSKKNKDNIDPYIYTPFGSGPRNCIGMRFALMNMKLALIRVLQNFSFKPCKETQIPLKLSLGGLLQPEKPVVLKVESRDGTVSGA

Columns and labels:
CYP3A4 [1] = target: T1, CYP3A4 (Homo sapiens, UniProt P08684); details: microsomes
CYP3A4 [2] = target: T1, CYP3A4; experiment: Inhibition of felodipine metabolism in CYP3A4-expressed human intestinal microsomes (HIM); type: biochemical; set-up: microsomes were prepared from donor human livers; tissue BD Biosciences (Pty) Ltd (Woburn, Mass., USA); host or cells: pooled human liver microsomes, 30 donors
From the text: In vitro drug metabolism for in vivo correlation often employs HLM. Pre-systemic drug metabolism occurs principally in the intestinal wall and the liver. An HLM inhibitor may not necessarily have the same effect in the intestines although cytochromic morphology might be the same. If this is the case, prospective oral bioavailability must necessarily be absorbed for hepatic activity. An enzyme inhibitor active against intestinal CYP will prevent intestinal pre-systemic metabolism and enhance oral bioavailability. Thus the use of HIM was to investigate the effects of HLM inhibitors on intestinal metabolism for a more reliable extrapolation. The modelled modulators were incubated with felodipine at the predetermined Km value with CYP3A4 expressed HIM. This was for in vivo correlational reliability. Prospective in vivo HLM modulators must be absorbed. It was reasoned that compounds active against HLM may not survive the physicochemical barriers necessary for hepatic absorption. The use of HIM estimates the potential utility of the modelled modulators that are pre-systemically degradable and whose potencies may be lost outside the gastrointestinal tract. […]. Thus, this confirms the potential utility of the modelled pre-systemic enzymatic modulators in oral drug delivery for enhancing the oral bioavailability of various classes of active pharmaceutical compositions.

## poly(methyl methacrylate) [Poly(methyl methacrylate) 10000]
CYP3A4 [1]
  % Inhibition in HLM: 50%
  Highest inhibition: 88
  IC50: 16.3 µM
  IC50 (mg/mL): 0.1628 mg/mL
CYP3A4 [2]
  % Inhibition in HIM: 54.51%
  IC50: 15.9 µM
